# What was measured:
# P. berghei = conditions: in vivo
# Walker tumor = conditions: versus malphalan
structure (smiles),measurement,setting,value
Nc1ccc(S(=O)(=O)Nc2ncccn2)cc1 [sulfadiazine],"relative efficacy against P. berghei, sulfadiazine vs silver sulfadiazine",P. berghei,equal efficacy
same,"concentration in Walker tumor relative to an active alkylating agent, liver as standard",Walker tumor,twenty-five times more effectively
